Experimental data as given in patent publication US20230391748A1, “BICYCLIC INHIBITORS OF IRAK” (priority 2022, published 2023).

Sequences of proteins named here, by UniProt entry; tags and fusion partners are left off.
UniProt Q9NWZ3, whole entry: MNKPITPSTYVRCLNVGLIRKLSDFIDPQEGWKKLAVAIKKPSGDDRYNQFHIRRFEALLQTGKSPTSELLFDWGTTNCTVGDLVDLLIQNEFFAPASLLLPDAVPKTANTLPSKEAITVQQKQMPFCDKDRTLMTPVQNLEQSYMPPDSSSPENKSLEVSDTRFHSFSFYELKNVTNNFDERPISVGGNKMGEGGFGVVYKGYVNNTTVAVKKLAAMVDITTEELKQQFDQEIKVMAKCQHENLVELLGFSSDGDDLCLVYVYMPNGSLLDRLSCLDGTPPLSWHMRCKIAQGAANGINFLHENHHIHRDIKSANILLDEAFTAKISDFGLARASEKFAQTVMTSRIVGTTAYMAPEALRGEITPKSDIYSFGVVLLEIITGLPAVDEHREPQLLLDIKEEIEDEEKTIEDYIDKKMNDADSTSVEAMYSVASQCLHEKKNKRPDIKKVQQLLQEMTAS

Tests used:
IRAK4 = IRAK4 (Homo sapiens (Human), UniProt Q9NWZ3); test: IRAK4 ADP-Glo Assay; type: biochemical; conditions: read-out: IRAK4 (IC50), MBP substrate
IL23p19 in THP-1 Cells = test: LPS Induced IL23p19 in THP-1 Cells (with IFNγ Primed) Assay; type: cell-based, human; conditions: read-out: IL23 (THP, LPS) (IC50); IFNγ-primed THP-1 cells, 1 μg/mL LPS, 18 hours, IL-23p19 ELISA
TNF-α in human PBMCs = test: R848-induced TNF-α in human PBMCs Assay; type: cell-based; conditions: read-out: TNFα (PBMC, R848) (IC50), 65 ng/mL R848, 4 hours, TNF-α ELISA
[1] = tested on: TNF-α in Human Primary Monocyte-Derived Dendritic Cells; test: Gardiquimod-Induced TNF-α in Human Primary Monocyte-Derived Dendritic Cells; type: cell-based; conditions: read-out: TNFα (DC, GARD) (IC50); IFNγ-primed monocyte-derived dendritic cells, 4 μg/ml Gardiquimod, 6 hours, TNF-α ELISA

CC(C)Oc1cc2c(OC[C@@H]3CCC(=O)N3)ncc(C#CC3(O)COC3)c2cc1C(N)=O
IC50 (IRAK4): 5.3 nM | IC50 (IL23p19 in THP-1 Cells): 1820 nM | IC50 (TNF-α in human PBMCs): 242 nM | IC50 [1]: 533 nM

CC(C)Oc1cc2c(OC[C@@H]3CC(F)(F)C(=O)N3)ncc(C#C[C@H]3C[C@@H](N(C)C)C3)c2cc1C(N)=O
IC50 (IL23p19 in THP-1 Cells): 84.6 nM | IC50 (TNF-α in human PBMCs): 3.7 nM | IC50 [1]: 4.1 nM
